Ki data for 1 compound are collected here from US7858643B2.

Chains of the proteins cited; added tags and fusions are not shown. Residues count along the entry.
UniProt P08581, 25-1390 limits assumed: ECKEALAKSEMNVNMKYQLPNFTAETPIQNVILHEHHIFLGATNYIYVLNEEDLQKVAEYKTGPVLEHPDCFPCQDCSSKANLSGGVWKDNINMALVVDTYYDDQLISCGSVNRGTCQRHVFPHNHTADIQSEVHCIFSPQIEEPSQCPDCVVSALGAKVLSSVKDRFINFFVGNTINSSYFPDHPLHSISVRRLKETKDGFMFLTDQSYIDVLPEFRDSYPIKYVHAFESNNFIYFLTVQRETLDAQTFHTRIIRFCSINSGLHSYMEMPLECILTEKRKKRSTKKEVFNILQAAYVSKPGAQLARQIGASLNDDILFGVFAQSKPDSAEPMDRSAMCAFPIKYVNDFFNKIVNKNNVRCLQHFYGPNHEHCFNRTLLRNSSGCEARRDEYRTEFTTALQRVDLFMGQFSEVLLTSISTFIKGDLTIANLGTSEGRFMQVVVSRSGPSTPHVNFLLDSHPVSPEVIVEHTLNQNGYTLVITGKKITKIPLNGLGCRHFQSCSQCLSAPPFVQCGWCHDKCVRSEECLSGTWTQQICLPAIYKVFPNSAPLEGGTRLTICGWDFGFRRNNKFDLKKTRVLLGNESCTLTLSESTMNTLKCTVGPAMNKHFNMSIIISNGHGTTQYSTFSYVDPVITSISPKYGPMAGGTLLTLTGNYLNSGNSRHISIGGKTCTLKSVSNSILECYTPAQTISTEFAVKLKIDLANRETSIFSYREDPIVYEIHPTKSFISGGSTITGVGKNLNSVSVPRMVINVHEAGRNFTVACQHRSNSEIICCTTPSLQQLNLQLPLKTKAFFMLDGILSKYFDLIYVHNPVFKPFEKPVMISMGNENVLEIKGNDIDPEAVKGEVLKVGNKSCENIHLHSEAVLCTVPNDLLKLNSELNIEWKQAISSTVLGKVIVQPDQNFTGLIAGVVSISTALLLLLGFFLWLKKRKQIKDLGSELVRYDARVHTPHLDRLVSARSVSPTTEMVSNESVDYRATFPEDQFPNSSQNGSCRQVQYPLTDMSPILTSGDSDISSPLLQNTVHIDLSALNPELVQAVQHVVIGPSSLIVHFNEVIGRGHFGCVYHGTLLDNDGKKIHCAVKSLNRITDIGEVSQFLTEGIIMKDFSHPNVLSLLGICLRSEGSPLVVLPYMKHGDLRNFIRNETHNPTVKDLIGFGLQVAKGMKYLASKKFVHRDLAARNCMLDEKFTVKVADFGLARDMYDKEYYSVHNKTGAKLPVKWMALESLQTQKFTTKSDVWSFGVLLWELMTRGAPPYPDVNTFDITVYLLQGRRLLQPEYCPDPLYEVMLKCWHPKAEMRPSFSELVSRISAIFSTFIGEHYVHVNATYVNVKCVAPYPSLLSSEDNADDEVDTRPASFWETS

The target in this assay is HGFR (c-Met) (Homo sapiens, UniProt P08581). The assay is described as follows: HGFR Continuous-Coupled Spectrophotometric Assay. To be noted: read-out: c-Met Ki; HGFR enzyme 50 nM, Met-2 substrate peptide, 37° C.

For orientation: Ki means a measure of affinity in units of concentration, obtained from inhibition or displacement.

Take `C[C@@H](Oc1cc(-c2ccc(C(=O)N(C)CCCN(C)C)cc2)cnc1N)c1c(Cl)ccc(F)c1Cl`: the Ki amounted to 10 nM.
